We go through four substances from patent US20040120943.

Data set [1] has as its target fibrinogen (UniProt P02671).
Data set [2] has as its target fibrin (fibrin I monomers) (UniProt P02671).
Data set [3] deals with TR^33-62, extracellular fragment of the platelet receptor PAR-1 spanning residues 33-62.
Data set [4] concerns the target protein C (UniProt P04070).

Entries after “also recorded” stand apart in the source; their conditions may differ.

In data set [1], wild-type human α-thrombin showed a Fibrinogen kcat/Km of 1.7e+07 M⁻¹ s⁻¹ and a Fibrinogen kcat/Km (fibrinopeptide A release) of 1.7e+07 M⁻¹ s⁻¹. In data set [2], this substance yielded a Fibrin kcat/Km of 8.1e+06 M⁻¹ s⁻¹ and a Fibrin kcat/Km (fibrinopeptide B release from fibrin I monomers) of 8.1e+06 M⁻¹ s⁻¹. Further, in data set [3], the “Km for cleavage of TR33-62” value was “Attempts to measure the value of Km indicated a value >10 µM”, the PAR1 kcat/Km stood at 2.6e+07 M⁻¹ s⁻¹ and the PAR-1 kcat/Km (cleavage of TR33-62) is 2.6e+07 M⁻¹ s⁻¹. In data set [4], the Protein C + TM kcat/Km (100 nM rabbit thrombomodulin, 5 mM CaCl2) worked out at 220000 M⁻¹ s⁻¹; the Protein C - TM kcat/Km (no thrombomodulin, 5 mM CaCl2) was 150 M⁻¹ s⁻¹; the Protein C kcat/Km, with 100 nM rabbit thrombomodulin and 5 mM CaCl2 amounted to 220000 M⁻¹ s⁻¹.
In the case of variant thrombin W215A, in data set [1], the Fibrinogen kcat/Km (fibrinopeptide A release) was found to be 34000 M⁻¹ s⁻¹, the “fold loss of fibrinogen cleavage against wild-type” value is reported as “The disruption of fibrinogen cleavage reaches 500-fold” and the “fold reduction of clotting activity against wild-type” value is “severely compromised clotting activity (about a 500-fold reduction)”. Moreover, the Fibrin kcat/Km (fibrinopeptide B release from fibrin I monomers) in data set [2] is 53000 M⁻¹ s⁻¹. In data set [3], the PAR-1 kcat/Km (cleavage of TR33-62) came to 1e+06 M⁻¹ s⁻¹; the “fold reduction of PAR-1 cleavage against wild-type” value was “the reduction in antithrombin III binding and PAR-1 cleavage is about 20-fold; also recorded: moderate loss of PAR-1 cleavage (26-fold reduction)”. In data set [4], the Protein C kcat/Km, with 100 nM rabbit thrombomodulin and 5 mM CaCl2 was 75000 M⁻¹ s⁻¹; the “fold loss of protein C cleavage (with thrombomodulin) against wild-type” value is listed as “insignificant loss of protein C cleavage (only about 3-fold)”; the “fold reduction of protein C activation without thrombomodulin against wild-type” value was “The activation of protein C is substantially reduced (150-fold) in the absence of thrombomodulin”.
variant thrombin E217A: in data set [1], the Fibrinogen kcat/Km is 270000 M⁻¹ s⁻¹. This substance showed a Fibrin kcat/Km in data set [2] of 150000 M⁻¹ s⁻¹. In data set [3], this substance yielded a PAR1 kcat/Km of 660000 M⁻¹ s⁻¹. Besides, in data set [4], the Protein C + TM kcat/Km (100 nM rabbit thrombomodulin, 5 mM CaCl2) is 140000 M⁻¹ s⁻¹ and the Protein C - TM kcat/Km (no thrombomodulin, 5 mM CaCl2) turned out to be 15 M⁻¹ s⁻¹.
For the substance variant thrombin W215A/E217A (WE), in data set [1], the Fibrinogen kcat/Km amounted to 890 M⁻¹ s⁻¹; the “fold reduction of fibrinogen cleavage against wild-type” value is “cleavage of fibrinogen and fibrin are reduced 19,000-fold and 3,800-fold respectively”; the ΔGc (coupling free energy between the W215A and E217A mutations, from kcat/Km for fibrinogen) was -0.3 kcal/mol. For the same substance, in data set [2], the Fibrin kcat/Km came to 2100 M⁻¹ s⁻¹; the “fold reduction of fibrin cleavage against wild-type” value is “cleavage of fibrinogen and fibrin are reduced 19,000-fold and 3,800-fold respectively”; the ΔGc (coupling free energy between the W215A and E217A mutations, from kcat/Km for fibrin) was -0.5 kcal/mol. For the same substance, in data set [3], the PAR1 kcat/Km was 26000 M⁻¹ s⁻¹; the “fold reduction of PAR-1 cleavage against wild-type” value is reported as “Cleavage of PAR-1 by the W215A/E217A mutant is reduced 1,000-fold compared to wild-type”; the ΔGc (coupling free energy between the W215A and E217A mutations, from kcat/Km for PAR1) is 0 kcal/mol. In addition, in data set [4], the Protein C + TM kcat/Km (100 nM rabbit thrombomodulin, 5 mM CaCl2) amounted to 33000 M⁻¹ s⁻¹; the Protein C - TM kcat/Km (no thrombomodulin, 5 mM CaCl2) amounted to 0.57 M⁻¹ s⁻¹; the “fold reduction of kcat/Km for protein C with thrombomodulin against wild-type” value was “The value of kcat/Km is reduced 300-fold in the absence of thrombomodulin and only 7-fold in the presence of the cofactor”; the “fold reduction of kcat/Km for protein C without thrombomodulin against wild-type” value is “The value of kcat/Km is reduced 300-fold in the absence of thrombomodulin and only 7-fold in the presence of the cofactor”. For the same substance, in data set [4], the “rate of protein C activation with thrombomodulin against wild-type” value is listed as “at a rate only 6-fold slower compared to wild-type thrombin”; the ΔGc (coupling free energy between the W215A and E217A mutations, from kcat/Km for protein C with thrombomodulin) was determined as 0.2 kcal/mol; the ΔGc (coupling free energy between the W215A and E217A mutations, from kcat/Km for protein C without thrombomodulin) is -1.1 kcal/mol.
